{"source": "patent US20100075897A1", "about": "“METHOD FOR S[…] BIOACTIVE PEPTIDES AND APPLICATION THEREOF” (JINAN UNIVERSITY, priority 2008, published 2010)", "molecules": {"B1": {"name": "DP8.3 fusion polypeptide (peptide)", "peptide": "PSSLLHWTHKIPALFNPRGSHAEGTFTSDVSSYLEGQAAKEFIAWLVKGRG", "notes": "ABP-LK-GLP fusion polypeptide, copied as printed with PSS at the N-terminus (DP8.1 and DP8.2 have PS); also called ABP-LK-GLP"}, "B2": {"name": "DP6.2 fusion polypeptide (peptide)", "peptide": "PLPHSHRAHSLPPFNPRGPHAEGTFTSDVSSYLEGQAAKEFIAWLVKGRG", "notes": "ABP-LK-GLP fusion polypeptide; also called ABP-LK-GLP"}, "B3": {"name": "DP3.1 fusion polypeptide (peptide)", "peptide": "PDICLPRWGCLWEFNPRGAHAEGTFTSDVSSYLEGQAAKEFIAWLVKGRG", "notes": "as for B2"}}, "key": {"[1]": {"test": "Half-life of ABP-LK-CT fusion polypeptide in mouse model using calcitonin antibody", "type": "in vivo"}, "[2]": {"test": "Half-life of ABP-LK-BH3 fusion polypeptide in mouse model with BH3 antibody", "type": "in vivo", "settings": "for Half-life t1/2: mouse model"}, "[3]": {"test": "Half-life of ABP-LK-GLP fusion polypeptides in mouse model using GLP-1 antibody (competitive enzyme-linked immunoassay)", "type": "in vivo"}, "[4]": {"biological_target": "T1, human serum albumin (Homo sapiens, UniProt P02768)", "T1 construct": "purchased Sigma-Aldrich", "test": "Surface plasmon resonance (BIAcore 3000) affinity of ABP-LK-GLP fusion polypeptide to human serum albumin", "settings": "SPR, 1 to 1 binding model, calculated from kon and koff; read-out: Kd (dissociation constant between fusion polypeptide and human serum albumin)"}, "[5]": {"test_system": "Human thrombin and DPP IV", "test": "Cleavage of ABP-LK-GLP-1 with exogenous human thrombin and DPP IV in presence of HSA (HPLC/TOF-MS)", "type": "in vitro ADME", "settings": "thrombin and DPP IV digestion; for peptide MS integral area: 37° C., HSA present"}, "[6]": {"biological_target": "Human thrombin (Homo sapiens, UniProt P00734)", "test": "Cleavage of ABP-LK-GLP-1 with exogenous human thrombin in presence of HSA (HPLC/TOF-MS)", "type": "in vitro ADME", "settings": "thrombin digestion; for peptide MS integral area: 37° C., HSA present"}, "[7]": {"settings": "Sung et al. 2003; cited from earlier work"}, "[8]": {"biological_target": "T2, human serum albumin (human, UniProt P02768 25-609)", "T2 construct": "Bought protein; coated on plates (ELISA) or coupled to a CM5 chip (SPR); also called HSA; human albumin", "test": "SPR (BIAcore 3000), HSA on CM5 chip, polypeptide injected, 1:1 model"}}, "data": [{"molecule": "CSNLSTCVLGKLSQELHKLQTYPRTNTGSGTP-NH2 [CT, reference compound]", "values": [{"measurement": "Half-life t1/2", "setting": "[1]; 11 μg polypeptide", "value": 1.25, "unit": "h"}, {"measurement": "Half-life t1/2", "setting": "[1]; 200 μg polypeptide", "value": 2.11, "unit": "h"}]}, {"molecule": "LPHSHRAHSLPPFNPRGA RYGRELRRMSDEFE [ABP-LK-BH3]", "values": [{"measurement": "enhancement of the half-life of BH3 in blood", "setting": "[2]; fusion polypeptide versus BH3, mouse model", "value": "up to 195 times"}, {"measurement": "Half-life t1/2", "setting": "[2]; 12 μg polypeptide", "value": 42.3, "unit": "h"}, {"measurement": "Half-life t1/2", "setting": "[2]; 100 μg polypeptide", "value": 86.5, "unit": "h"}]}, {"molecule": "LPHSHRAHSLPPFNPRGPCSNLSTCVLGKLSQELHKLQTYPRTNTGSGTP-NH2 [ABP-LK-CT]", "values": [{"measurement": "Half-life t1/2", "setting": "[1]; 11 μg polypeptide", "value": 37.8, "unit": "h"}, {"measurement": "Half-life t1/2", "setting": "[1]; 200 μg polypeptide", "value": 76.3, "unit": "h"}, {"measurement": "enhancement of the half-life of calcitonin in blood", "setting": "[1]; fusion polypeptide versus calcitonin", "value": "up to 70 times"}]}, {"molecule": "LPHSHRAHSLPPFNPRPA HAEGTFTSDVSSYLEGQAAKEFIAWLVKGRG [PA6.2]", "values": [{"measurement": "Half-life t1/2", "setting": "[3]; 11 μg polypeptide", "value": 26.4, "unit": "h"}, {"measurement": "Half-life t1/2", "setting": "[3]; 100 μg polypeptide", "value": 32.7, "unit": "h"}, {"measurement": "Half-life t1/2", "setting": "[3]; 150 μg polypeptide", "value": 65.4, "unit": "h"}]}, {"molecule": "LPHSHRAHSLPPFNPRPP HAEGTFTSDVSSYLEGQAAKEFIAWLVKGRG [PP6.2]", "values": [{"measurement": "Half-life t1/2", "setting": "[3]; 11 μg polypeptide", "value": 35.6, "unit": "h"}, {"measurement": "Half-life t1/2", "setting": "[3]; 100 μg polypeptide", "value": 49.5, "unit": "h"}, {"measurement": "Half-life t1/2", "setting": "[3]; 150 μg polypeptide", "value": 98.3, "unit": "h"}]}, {"molecule": "PDICLPRWGCLWEFNPRGA HAEGTFTSDVSSYLEGQAAKEFIAWLVKGRG [DP3.1]", "values": [{"measurement": "Kd", "setting": "[4]", "value": 1030, "unit": "nM"}, {"measurement": "peptide MS integral area", "setting": "[5]; time 0 h", "value": 28079570.3}, {"measurement": "peptide MS integral area", "setting": "[5]; time 2 h", "value": 22632133.7}, {"measurement": "peptide MS integral area", "setting": "[5]; time 6 h", "value": 19234505.7}, {"measurement": "peptide MS integral area", "setting": "[5]; time 12 h", "value": 15977275.5}, {"measurement": "peptide MS integral area", "setting": "[5]; time 16 h", "value": 3743753.1}, {"measurement": "peptide MS integral area", "setting": "[5]; time 24 h", "value": 1881331.2}, {"measurement": "The ratio of area", "setting": "[5]; time 0 h", "value": 100, "unit": "%"}, {"measurement": "The ratio of area", "setting": "[5]; time 2 h", "value": 80.6, "unit": "%"}, {"measurement": "The ratio of area", "setting": "[5]; time 6 h", "value": 68.5, "unit": "%"}, {"measurement": "The ratio of area", "setting": "[5]; time 12 h", "value": 56.9, "unit": "%"}, {"measurement": "The ratio of area", "setting": "[5]; time 16 h", "value": 13.3, "unit": "%"}, {"measurement": "The ratio of area", "setting": "[5]; time 24 h", "value": 6.7, "unit": "%"}]}, {"molecule": "PLPHSHRAHSLPPFNPRGP HAEGTFTSDVSSYLEGQAAKEFIAWLVKGRG [DP6.2]", "values": [{"measurement": "Kd", "setting": "[4]", "value": 1440, "unit": "nM"}, {"measurement": "peptide MS integral area", "setting": "[6]; Time 0 h", "value": 10055375.5}, {"measurement": "peptide MS integral area", "setting": "[6]; Time 2 h", "value": 7974113.2}, {"measurement": "peptide MS integral area", "setting": "[6]; Time 6 h", "value": 6263427.6}, {"measurement": "peptide MS integral area", "setting": "[6]; Time 12 h", "value": 3764023.7}, {"measurement": "peptide MS integral area", "setting": "[6]; Time 16 h", "value": 2394306.8}, {"measurement": "peptide MS integral area", "setting": "[6]; Time 24 h", "value": 456948.1}, {"measurement": "Area ratio", "setting": "[6]; Time 0 h", "value": 100, "unit": "%"}, {"measurement": "Area ratio", "setting": "[6]; Time 2 h", "value": 79.3, "unit": "%"}, {"measurement": "Area ratio", "setting": "[6]; Time 6 h", "value": 62.3, "unit": "%"}, {"measurement": "Area ratio", "setting": "[6]; Time 12 h", "value": 37.4, "unit": "%"}, {"measurement": "Area ratio", "setting": "[6]; Time 16 h", "value": 23.8, "unit": "%"}, {"measurement": "Area ratio", "setting": "[6]; Time 24 h", "value": 4.5, "unit": "%"}, {"measurement": "Half-life t1/2", "setting": "[3]; 11 μg polypeptide", "value": 5.3, "unit": "h"}, {"measurement": "Half-life t1/2", "setting": "[3]; 100 μg polypeptide", "value": 5.6, "unit": "h"}, {"measurement": "Half-life t1/2", "setting": "[3]; 150 μg polypeptide", "value": 12.5, "unit": "h"}]}, {"molecule": "PNICLPRWGCLWDFNPRGA HAEGTFTSDVSSYLEGQAAKEFIAWLVKGRG [DP4.1]", "values": [{"measurement": "peptide MS integral area", "setting": "[5]; time 0 h", "value": 12626709.1}, {"measurement": "peptide MS integral area", "setting": "[5]; time 2 h", "value": 9482015.7}, {"measurement": "peptide MS integral area", "setting": "[5]; time 6 h", "value": 6652133.7}, {"measurement": "peptide MS integral area", "setting": "[5]; time 12 h", "value": 4459186.4}, {"measurement": "peptide MS integral area", "setting": "[5]; time 16 h", "value": 2643753.6}, {"measurement": "peptide MS integral area", "setting": "[5]; time 24 h", "value": 912774.9}, {"measurement": "The ratio of area", "setting": "[5]; time 0 h", "value": 100, "unit": "%"}, {"measurement": "The ratio of area", "setting": "[5]; time 2 h", "value": 75.1, "unit": "%"}, {"measurement": "The ratio of area", "setting": "[5]; time 6 h", "value": 52.7, "unit": "%"}, {"measurement": "The ratio of area", "setting": "[5]; time 12 h", "value": 35.3, "unit": "%"}, {"measurement": "The ratio of area", "setting": "[5]; time 16 h", "value": 20.9, "unit": "%"}, {"measurement": "The ratio of area", "setting": "[5]; time 24 h", "value": 7.2, "unit": "%"}]}, {"molecule": "PSSLLHWTHKIPALFNPRGS HAEGTFTSDVSSYLEGQAAKEFIAWLVKGRG [DP8.3]", "values": [{"measurement": "Kd", "setting": "[4]", "value": 2920, "unit": "nM"}]}, {"molecule": "RYGRELRRMSDEFE [BH3, reference compound]", "values": [{"measurement": "Half-life t1/2", "setting": "[2]; 12 μg polypeptide", "value": 0.4, "unit": "h"}, {"measurement": "Half-life t1/2", "setting": "[2]; 100 μg polypeptide", "value": 0.74, "unit": "h"}]}, {"molecule": "interferon-β", "values": [{"measurement": "half-life", "setting": "[7]", "value": 8, "unit": "h"}]}, {"molecule": "B1", "values": [{"measurement": "Kd", "setting": "[8]", "value": 2920, "unit": "nM"}]}, {"molecule": "B2", "values": [{"measurement": "Kd", "setting": "[8]", "value": 1440, "unit": "nM"}]}, {"molecule": "B3", "values": [{"measurement": "Kd", "setting": "[8]", "value": 1030, "unit": "nM"}]}]}
